Laboratory results taken from ChEMBL document CHEMBL1157833, “Serotonin derivatives as a new class of non-ATP-competitive receptor tyrosine kinase inhibitors” (Bioorg Med Chem, 2010).

Amino acid sequences for entries named in this document (tags omitted).
UniProt P00533, whole entry: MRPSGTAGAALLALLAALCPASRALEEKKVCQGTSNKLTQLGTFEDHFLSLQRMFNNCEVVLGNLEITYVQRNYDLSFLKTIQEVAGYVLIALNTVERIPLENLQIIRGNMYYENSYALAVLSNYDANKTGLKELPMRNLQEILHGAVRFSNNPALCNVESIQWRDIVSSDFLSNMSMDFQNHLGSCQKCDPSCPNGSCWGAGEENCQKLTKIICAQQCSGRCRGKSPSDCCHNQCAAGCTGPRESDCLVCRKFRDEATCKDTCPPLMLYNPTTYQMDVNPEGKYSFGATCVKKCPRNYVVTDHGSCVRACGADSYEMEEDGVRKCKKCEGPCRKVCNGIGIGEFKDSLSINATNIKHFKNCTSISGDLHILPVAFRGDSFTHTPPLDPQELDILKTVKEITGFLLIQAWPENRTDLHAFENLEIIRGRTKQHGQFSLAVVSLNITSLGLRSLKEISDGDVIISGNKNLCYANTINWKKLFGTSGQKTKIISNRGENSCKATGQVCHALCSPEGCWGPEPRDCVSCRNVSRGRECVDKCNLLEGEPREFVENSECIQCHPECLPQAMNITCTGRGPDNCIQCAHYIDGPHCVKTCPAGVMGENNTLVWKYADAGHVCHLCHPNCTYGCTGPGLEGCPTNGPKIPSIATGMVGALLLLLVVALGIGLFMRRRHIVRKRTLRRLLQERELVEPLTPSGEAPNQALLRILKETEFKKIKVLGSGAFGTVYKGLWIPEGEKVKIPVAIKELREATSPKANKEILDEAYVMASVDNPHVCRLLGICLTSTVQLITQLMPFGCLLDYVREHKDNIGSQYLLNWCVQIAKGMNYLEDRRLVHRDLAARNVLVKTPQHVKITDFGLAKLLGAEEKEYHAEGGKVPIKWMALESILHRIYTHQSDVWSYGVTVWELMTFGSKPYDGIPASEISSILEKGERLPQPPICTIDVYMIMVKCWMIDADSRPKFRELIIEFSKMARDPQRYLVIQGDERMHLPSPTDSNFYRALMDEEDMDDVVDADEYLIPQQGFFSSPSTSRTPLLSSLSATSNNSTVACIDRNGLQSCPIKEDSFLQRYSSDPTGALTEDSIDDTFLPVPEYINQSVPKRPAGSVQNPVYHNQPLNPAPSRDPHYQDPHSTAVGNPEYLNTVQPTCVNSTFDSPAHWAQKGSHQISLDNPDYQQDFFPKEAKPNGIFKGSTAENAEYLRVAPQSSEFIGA

Molecular target: Epidermal growth factor receptor (Homo sapiens, UniProt P00533)
Test: Inhibition of EGFR after 30 mins by chemiluminescence ELISA

SMILES: NC1CCc2c(c3cc(OCCc4ccc(O)cc4)ccc3n2CCCCCc2ccccn2)C1 (stereo unspecified)
- IC50: 2280 nM
